Conditions: in comparison to a 15 mg dose of hydrocodone

SMILES: CN1CC[C@]23c4c5ccc(O)c4O[C@H]2C(=O)CC[C@H]3[C@H]1C5 [Hydromorphone]
- Equianalgesic dose, Calculated Dose: 3.375 mg

Reference: patent publication US20150104519A1, “Pharmaceutical Compositions” (Alpharma Pharmaceuticals LLC, priority 2007, published 2015)
